{"sequences": {"note": "Sequences of proteins named here, by UniProt entry; tags and fusion partners are left off.", "UniProt P21728, whole entry, looked up": "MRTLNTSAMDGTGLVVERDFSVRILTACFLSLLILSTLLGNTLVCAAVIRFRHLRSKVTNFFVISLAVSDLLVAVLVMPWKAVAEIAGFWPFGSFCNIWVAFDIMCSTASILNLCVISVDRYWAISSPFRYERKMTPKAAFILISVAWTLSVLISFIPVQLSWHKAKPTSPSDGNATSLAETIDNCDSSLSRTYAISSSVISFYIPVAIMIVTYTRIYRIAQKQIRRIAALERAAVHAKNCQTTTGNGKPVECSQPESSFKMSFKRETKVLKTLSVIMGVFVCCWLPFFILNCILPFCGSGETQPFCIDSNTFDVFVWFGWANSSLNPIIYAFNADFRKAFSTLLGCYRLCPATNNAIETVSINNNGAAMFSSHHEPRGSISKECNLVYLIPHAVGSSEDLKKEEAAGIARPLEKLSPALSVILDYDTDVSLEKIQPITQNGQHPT"}, "source": "PubChem BioAssay AID504652", "about": "(National Center for Advancing Translational Sciences (NCATS), 2011)", "note": "The list shows a part of the results, in another mix than the full data. Calls of active or inactive are those of the source. No stated cut-off is given here; in the data, active means activity change below about -30%; inactive means the rest. On the % scale 0 is the no-effect control and ±100 the full control effect.", "data": [{"target": "D(1A) dopamine receptor (Homo sapiens) (UniProt P21728)", "assay": "Antagonist of Human D 1 Dopamine Receptor: qHTS", "settings": "HEK293 TREx D1 cells, calcium flux, dopamine EC80; at 10 µM; stronger effect = lower value", "in_short": "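Tetracycline-induced HEK293 Trex D1 cells, force-coupled to calcium, dye-loaded; compounds added and read 180 s, then EC80 dopamine added and calcium flux tracked kinetically another 180 s.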", "values": [{"smiles": "CCOC(=O)Nc1ccc([As](=O)(O)O)c(O)c1", "activity change, negative = inhibition": "inactive: -2.24%"}, {"smiles": "CCCCOc1ccc(C(=O)NCC2(N3CCCCC3)CCCCC2)cc1OC", "activity change, negative = inhibition": "inactive: 0.106%"}, {"smiles": "Cc1cc(SC(NC(=O)c2ccccc2)C(Cl)(Cl)Cl)nc(C(C)C)n1", "note": "(stereo unspecified)", "activity change, negative = inhibition": "inactive: -9.56%"}, {"smiles": "O=P1(Nc2ncccn2)COc2ccccc2OC1", "activity change, negative = inhibition": "inactive: -18.5%"}, {"smiles": "O=P1(Nc2ccc(Br)cn2)COc2ccccc2OC1", "activity change, negative = inhibition": "inactive: -5.77%"}, {"smiles": "NS(=O)(=O)c1cccc(NC(=O)COC(=O)C(O)(c2ccccc2)c2ccccc2)c1", "activity change, negative = inhibition": "inactive: -7.07%"}, {"smiles": "O=[As](O)(c1cccs1)c1cccs1", "activity change, negative = inhibition": "inactive: 6.74%"}, {"smiles": "Cc1ccc(OCC(=O)OC2CN3CCC2CC3)cc1", "note": "(stereo unspecified)", "activity change, negative = inhibition": "inactive: -5.36%"}, {"smiles": "Nc1cccc([As](=O)(O)c2ccccc2)c1", "activity change, negative = inhibition": "inactive: -10.9%"}, {"smiles": "Cc1nn(-c2ccccc2)c2c1P(=O)(N1CCOCC1)N(C)C(c1ccccc1)=N2", "note": "(stereo unspecified)", "activity change, negative = inhibition": "inactive: -7.81%"}, {"smiles": "CC1CCC(C(C)C)C(OP(=O)(Nc2ccccn2)c2ccccc2)C1", "note": "(stereo unspecified)", "activity change, negative = inhibition": "inactive: -11.7%"}, {"smiles": "Cc1ccc(C(=O)OC2CN3CCC2CC3)cc1", "note": "(stereo unspecified)", "activity change, negative = inhibition": "inactive: 0.766%"}, {"smiles": "O=C(/C=C/c1ccccc1)OC1CN2CCC1CC2", "note": "(stereo unspecified)", "activity change, negative = inhibition": "inactive: -0.906%"}, {"smiles": "CN(C)C1(CNC(=O)c2ccc(S(C)(=O)=O)cc2)CCCCC1", "activity change, negative = inhibition": "inactive: -0.641%"}, {"smiles": "COc1ccccc1CNC(=O)COC(=O)C(O)(c1ccccc1)c1ccccc1", "activity change, negative = inhibition": "inactive: -1.64%"}, {"smiles": "O=[As](O)(c1ccccc1Br)c1ccccc1Br", "activity change, negative = inhibition": "inactive: 9.73%"}, {"smiles": "CC(C)/C=N\\N=C(\\N)N[N+](=O)[O-]", "activity change, negative = inhibition": "inactive: 9.95%"}, {"smiles": "CN(C(=O)Cc1ccc(Cl)c(Cl)c1)[C@@H]1CCCC[C@H]1N1CCCC1", "activity change, negative = inhibition": "inactive: 14.9%"}, {"smiles": "CCOP(=O)(Nc1ccc(C)cn1)OCC", "activity change, negative = inhibition": "inactive: -3.69%"}, {"smiles": "O=P1(Nc2ccccn2)COc2ccccc2OC1", "activity change, negative = inhibition": "inactive: 2.23%"}, {"smiles": "CCC1=CC2Cc3nc4ccc(Cl)cc4c(N)c3C(C1)C2", "note": "(stereo unspecified)", "activity change, negative = inhibition": "inactive: -18.3%"}, {"smiles": "CCOP(=O)(NC(=NC(C)c1ccccc1)NC(C)c1ccccc1)OCC", "note": "(stereo unspecified)", "activity change, negative = inhibition": "inactive: 6.4%"}, {"smiles": "Clc1n[nH]nc1-c1nn[nH][15n]1", "activity change, negative = inhibition": "active: -32.6%"}, {"smiles": "CC(C)(C)C(=O)NC(Sc1ncccn1)C(Cl)(Cl)Cl", "note": "(stereo unspecified)", "activity change, negative = inhibition": "inactive: 11.9%"}, {"smiles": "CCCOP(=S)(Nc1nc(N)cc(=O)[nH]1)OCCC", "activity change, negative = inhibition": "inactive: -11.6%"}, {"smiles": "Nc1cccc2c([As](=O)(O)O)cccc12", "activity change, negative = inhibition": "inactive: 22.8%"}, {"smiles": "Cc1ccc(NCCc2c([N+](=O)[O-])cc([N+](=O)[O-])cc2[N+](=O)[O-])cc1", "activity change, negative = inhibition": "inactive: -8.41%"}, {"smiles": "COc1cc(C2NCCC3(OCCO3)C2(C)C)cc(OC)c1OC", "note": "(stereo unspecified)", "activity change, negative = inhibition": "inactive: 1.57%"}, {"smiles": "CCOP(=O)(Nc1cccc2ccccc12)OCC", "activity change, negative = inhibition": "inactive: 7.36%"}, {"smiles": "COc1cc(C(=O)NCC2(N3CCOCC3)CCCCC2)cc(Cl)c1OC(C)C", "activity change, negative = inhibition": "inactive: 10.6%"}, {"smiles": "O=[As](O)(O)c1cccnc1", "activity change, negative = inhibition": "inactive: 26.4%"}, {"smiles": "CS(=O)(=O)c1ccc(Cl)c(NC(=O)COC(=O)C(O)(c2ccccc2)c2ccccc2)c1", "activity change, negative = inhibition": "inactive: 10%"}, {"smiles": "O=C(OC1CN2CCC1CC2)c1ccc(Cl)cc1", "note": "(stereo unspecified)", "activity change, negative = inhibition": "inactive: -6.98%"}, {"smiles": "O=[As](O)(c1cccc(O)c1)c1cccc(O)c1", "activity change, negative = inhibition": "inactive: 7.69%"}, {"smiles": "Cc1cccc(OCC(=O)OC2CN3CCC2CC3)c1", "note": "(stereo unspecified)", "activity change, negative = inhibition": "inactive: -6.3%"}, {"smiles": "NC(=O)Nc1ccc([As](=O)(O)O)cc1", "activity change, negative = inhibition": "inactive: 24.4%"}, {"smiles": "O=[N+]([O-])c1ccc2c(c1)nnn2O", "activity change, negative = inhibition": "inactive: -24.2%"}, {"smiles": "N#CCCN(C(=O)COC(=O)C(O)(c1ccccc1)c1ccccc1)c1ccc(F)cc1", "activity change, negative = inhibition": "inactive: 12.1%"}, {"smiles": "CN(C(=O)Cc1ccccc1)[C@@H]1CC[C@]2(CCCO2)C[C@H]1N1CCCC1", "activity change, negative = inhibition": "inactive: 1.67%"}, {"smiles": "CCOP1(=S)c2c(C)nn(CCC#N)c2N=C(c2ccc(F)cc2)N1C", "note": "(stereo unspecified)", "activity change, negative = inhibition": "inactive: -15.3%"}, {"smiles": "CS(=O)(=O)c1cc([N+](=O)[O-])c2no[n+]([O-])c2c1", "activity change, negative = inhibition": "inactive: 6.73%"}, {"smiles": "CCOP1(=S)c2c(C)nn(CCC#N)c2N=C(c2ccccc2F)N1C", "note": "(stereo unspecified)", "activity change, negative = inhibition": "inactive: 5.59%"}, {"smiles": "O=P(Nc1nccs1)(c1ccccc1)c1nc2ccccc2s1", "note": "(stereo unspecified)", "activity change, negative = inhibition": "inactive: 6.98%"}, {"smiles": "O=P(Nc1nccs1)(Oc1ccccc1)Oc1ccccc1", "activity change, negative = inhibition": "inactive: -8.16%"}, {"smiles": "Nc1ccccc1[As](=O)(O)c1ccccc1", "activity change, negative = inhibition": "inactive: -27%"}, {"smiles": "O=C(O)COc1ccc([As](=O)(O)O)cc1[N+](=O)[O-]", "activity change, negative = inhibition": "inactive: -7.05%"}]}]}
